The data set in a line: Aqueous solubility of PG-camptothecin conjugates. The following applies: % CPT in conjugate (w/w): PG-CPT 14, PG-gly-CPT 37, PG-(10-OAc-CPT) 13, PG-(10-O-CPT) 13, PG-gly-(10-O-CPT) 20, PG-(10-OH-CPT) 19, PG-(9-NH-CPT) 14.

Data on 1 substance can be found in patent US7173041B2, “Polyglutamic acid-camptothecin conjugates and methods of preparation” (priority 2000, dated 2007).

Broadly, the Aqueous solubility is the dissolved amount per volume that the medium holds. A lower Aqueous solubility goes with little dissolved substance. As for PG-CPT, the Aqueous solubility worked out at 11 mg/mL.
